Values quoted from earlier work, collected in patent publication US11364219B2, “Methods and pharmaceutical compositions for treating microbiome dysregulations associated with circadian clock disruption” (INSERM (INSTITUT NATIONAL DE LA SANTÉ ET DE LA RECHERCHE …, priority 2016, dated 2022).

Target: Csnk2
Settings: Csnk2 inhibitors listed as examples; cited from earlier work

| Compound | Ki |
| --- | --- |
| CN(C)c1nc2c(Br)c(Br)c(Br)c(Br)c2[nH]1 [K25/DMAT, 2-dimethylamino-4,5,6,7-tetrabromo-1H-benzimidazole] | 40 nM |
| O=C1c2ccc(O)c(O)c2C(=O)c2c(O)ccc(O)c21 [quinalizarin, 1,2,5,8-tetrahydroxy-anthraquinone] | 60 nM |
